# Measurements published in patent US9493486B2, “Diazaspirocycloalkane and azaspirocycloalkane” (Hoffmann-La Roche Inc., priority 2012, dated 2016).
# Biological target: ATX (human His-tagged) (Homo sapiens (Human), UniProt Q13822)
# Test: Human ATX enzyme inhibition assay (fluorescence quenching, MR121 substrate)
# Assay type: biochemical
# Conditions: 30 nM ATX, 1 μM MR121 substrate, 30° C.
# Excerpt: Human ATX Enzyme Inhibition Assay
# Assay working solutions were made as follows:
row,SMILES,IC50 [nM]
1,"O=C(OCc1ccc(OC(F)(F)F)cc1F)N1CCC2(CC1)CN(C(=O)[C@H]1CCc3[nH]nnc3C1)C2 (single isomer, unassigned) [Example 15A, (−)-2-Fluoro-4-(trifluoromethoxy)benzyl 2-(4,5,6,7-tetrahydro-1H-benzo[d][1,2,3]triazole-5-carbonyl)-2,7-diazaspiro[3.5]nonane-7-carboxylate]",16
2,"O=C(OCc1ccsc1)N1CCC2(CC1)CN(C(=O)c1ccc3[nH]nnc3c1)C2 [Example 12.13, thiophen-3-ylmethyl 2-(1H-benzo[d][1,2,3]triazole-5-carbonyl)-2,7-diazaspiro[3.5]nonane-7-carboxylate]",3520
3,"O=C(OCc1c(Cl)cc(Cl)cc1Cl)N1CCC2(CC1)CN(C(=O)c1ccc3[nH]nnc3c1)C2 [Example 12.17, 2,4,6-trichlorobenzyl 2-(1H-benzo[d][1,2,3]triazole-5-carbonyl)-2,7-diazaspiro[3.5]nonane-7-carboxylate]",20.3
